From patent US20200138840A1, “PHARMACEUTICAL COMPOSITION AND TUMOR IMMUNOACTIVITY PROMOTER” (SENTAN Pharma inc., priority 2017, published 2020)

Assay: Side effects in Example 1: body weight, meals, blood glucose, serological profiles, liver weight
Assay type: in vivo, nude mice (BALBc-nu/nu)
Conditions: day 21; sorafenib 5 mg/kg/day orally
Method: Six-week-old nude mice (male, BALBc-nu/nu mice) were subcutaneously transplanted with 1×10^7 Huh-7 cells. In order to confirm the survival and growth of the transplanted cells, the measurement of tumor size was carried out using a pair of vernier calipers. At the time point when the tumors in the mice had reached a volume of from 100 to 150 mm^3, the mice were divided into the following six groups.
(b) Low dose 2DG group: 100 mg/kg/day of a 100 mg/mL 2DG solution, prepared by dissolving 2DG in PBS, was administered intraperitoneally every day.
(c) High dose 2DG group: 1,000 mg/kg/day of the 100 mg/mL 2DG solution was administered intraperitoneally every day. […]
In each of the groups, the tumor volume and the body weight of the mice were measured every 3 days from the start of administration. At the time points of 7 days, 14 days and 21 days after the start of administration, the average amount of meals taken per day was calculated from the amount of meals taken in the previous week. On day 14 after the start of administration, blood was collected from the mice in the high dose 2DG group at a predetermined time, and the blood glucose level was measured using Glucocard (trademark) MyDia (manufactured by Arkray, Inc.). […] The serological profiles of the collected blood samples were measured using SPOTCHEM (trademark) EZ SP-4430 system (manufactured by Arkray, Inc.). […]

## CNC(=O)c1cc(Oc2ccc(NC(=O)Nc3ccc(Cl)c(C(F)(F)F)c3)cc2)ccn1 [Sorafenib, sorafenib]
  Liver weight: 1.19 ± 0.1 g
